Results as given in paper PMC10253498 (RSC Advances, 2023).

Amino acid sequences for entries named in this document (tags omitted). Residues count along the entry.
UniProt P22303, 32-614, species assumed: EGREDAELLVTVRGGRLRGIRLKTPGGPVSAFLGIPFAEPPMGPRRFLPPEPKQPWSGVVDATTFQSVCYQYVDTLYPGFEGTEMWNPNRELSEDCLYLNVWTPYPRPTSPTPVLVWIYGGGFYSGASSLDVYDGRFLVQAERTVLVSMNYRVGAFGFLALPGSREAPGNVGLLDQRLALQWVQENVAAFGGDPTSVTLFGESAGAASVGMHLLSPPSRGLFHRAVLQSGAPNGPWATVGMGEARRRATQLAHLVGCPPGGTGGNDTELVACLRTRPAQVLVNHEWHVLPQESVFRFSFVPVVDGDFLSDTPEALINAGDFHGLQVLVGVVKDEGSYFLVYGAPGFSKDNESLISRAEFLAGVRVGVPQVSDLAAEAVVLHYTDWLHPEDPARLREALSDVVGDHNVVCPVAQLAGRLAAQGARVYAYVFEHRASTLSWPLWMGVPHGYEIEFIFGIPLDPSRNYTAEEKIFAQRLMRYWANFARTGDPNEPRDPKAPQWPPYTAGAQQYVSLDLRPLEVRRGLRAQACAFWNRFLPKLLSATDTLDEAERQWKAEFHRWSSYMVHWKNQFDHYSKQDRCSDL
UniProt P21397, whole entry: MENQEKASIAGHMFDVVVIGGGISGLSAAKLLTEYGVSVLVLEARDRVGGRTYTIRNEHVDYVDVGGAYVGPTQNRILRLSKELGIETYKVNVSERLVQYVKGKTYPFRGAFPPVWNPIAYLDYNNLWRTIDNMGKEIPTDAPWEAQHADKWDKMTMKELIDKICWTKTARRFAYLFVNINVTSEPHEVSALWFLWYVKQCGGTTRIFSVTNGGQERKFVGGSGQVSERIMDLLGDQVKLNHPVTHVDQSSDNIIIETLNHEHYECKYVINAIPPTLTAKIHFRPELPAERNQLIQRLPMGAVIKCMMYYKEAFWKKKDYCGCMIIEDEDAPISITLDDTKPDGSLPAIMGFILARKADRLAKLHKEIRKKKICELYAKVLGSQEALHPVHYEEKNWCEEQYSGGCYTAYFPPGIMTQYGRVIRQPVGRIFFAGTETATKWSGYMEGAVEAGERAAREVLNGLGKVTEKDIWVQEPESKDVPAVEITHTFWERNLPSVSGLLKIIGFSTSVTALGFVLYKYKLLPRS

Key:
[1] = target: T1, acetyl cholinesterase (AChE) (Homo sapiens, UniProt P22303)
[2] = target: T1, acetyl cholinesterase (AChE); assay: biochemical
[3] = target: monoamine oxidase A (MAO-A, extracted) (Homo sapiens, UniProt P21397)

Structure (SMILES)	inhibition against AChE (in words) [1]	AChE %age inhibition ([1]; test concentration not given) [% ^c]	IC50 [2] [nM]	selectivity for MAO-A over MAO-B and AChE enzymes [3] [fold]
Fc1ccccc1Nc1nnc(Cc2ccccc2C(F)(F)F)o1 [Compound 4c, N-(2-Fluorophenyl)-5-(2-(trifluoromethyl)benzyl)-1,3,4-oxadiazol-2-amine]	moderate to weak inhibition	36.12		
c1ccc(Nc2nnc(-c3ccncc3)o2)cc1 [Compound 4d, N-Phenyl-5-(pyridin-4-yl)-1,3,4-oxadiazol-2-amine]	potent inhibition; also recorded: promising inhibitory effects		830 ± 7	
CC(C)c1ccc(Nc2nnc(-c3ccc(C(F)(F)F)cc3)o2)cc1 [Compound 4m, N-(4-Isopropylphenyl)-5-(4-(trifluoromethyl)phenyl)-1,3,4-oxadiazol-2-amine]	potent inhibition		2670 ± 29	~25
Cc1ccccc1Nc1nnc(-c2ccccc2)o1 [Compound 4n, 5-Phenyl-N-(o-tolyl)-1,3,4-oxadiazol-2-amine]	potent inhibition		1230 ± 969	

Entries after “also recorded” stand apart in the source; their conditions may differ. Marks after values point to notes of the source that are not given here.
